Assay results taken from paper PMC4734667 (PLoS ONE, 2016).

Amino acid sequences for entries named in this document (tags omitted). Residues count along the entry.
UniProt O15399, 28-1336: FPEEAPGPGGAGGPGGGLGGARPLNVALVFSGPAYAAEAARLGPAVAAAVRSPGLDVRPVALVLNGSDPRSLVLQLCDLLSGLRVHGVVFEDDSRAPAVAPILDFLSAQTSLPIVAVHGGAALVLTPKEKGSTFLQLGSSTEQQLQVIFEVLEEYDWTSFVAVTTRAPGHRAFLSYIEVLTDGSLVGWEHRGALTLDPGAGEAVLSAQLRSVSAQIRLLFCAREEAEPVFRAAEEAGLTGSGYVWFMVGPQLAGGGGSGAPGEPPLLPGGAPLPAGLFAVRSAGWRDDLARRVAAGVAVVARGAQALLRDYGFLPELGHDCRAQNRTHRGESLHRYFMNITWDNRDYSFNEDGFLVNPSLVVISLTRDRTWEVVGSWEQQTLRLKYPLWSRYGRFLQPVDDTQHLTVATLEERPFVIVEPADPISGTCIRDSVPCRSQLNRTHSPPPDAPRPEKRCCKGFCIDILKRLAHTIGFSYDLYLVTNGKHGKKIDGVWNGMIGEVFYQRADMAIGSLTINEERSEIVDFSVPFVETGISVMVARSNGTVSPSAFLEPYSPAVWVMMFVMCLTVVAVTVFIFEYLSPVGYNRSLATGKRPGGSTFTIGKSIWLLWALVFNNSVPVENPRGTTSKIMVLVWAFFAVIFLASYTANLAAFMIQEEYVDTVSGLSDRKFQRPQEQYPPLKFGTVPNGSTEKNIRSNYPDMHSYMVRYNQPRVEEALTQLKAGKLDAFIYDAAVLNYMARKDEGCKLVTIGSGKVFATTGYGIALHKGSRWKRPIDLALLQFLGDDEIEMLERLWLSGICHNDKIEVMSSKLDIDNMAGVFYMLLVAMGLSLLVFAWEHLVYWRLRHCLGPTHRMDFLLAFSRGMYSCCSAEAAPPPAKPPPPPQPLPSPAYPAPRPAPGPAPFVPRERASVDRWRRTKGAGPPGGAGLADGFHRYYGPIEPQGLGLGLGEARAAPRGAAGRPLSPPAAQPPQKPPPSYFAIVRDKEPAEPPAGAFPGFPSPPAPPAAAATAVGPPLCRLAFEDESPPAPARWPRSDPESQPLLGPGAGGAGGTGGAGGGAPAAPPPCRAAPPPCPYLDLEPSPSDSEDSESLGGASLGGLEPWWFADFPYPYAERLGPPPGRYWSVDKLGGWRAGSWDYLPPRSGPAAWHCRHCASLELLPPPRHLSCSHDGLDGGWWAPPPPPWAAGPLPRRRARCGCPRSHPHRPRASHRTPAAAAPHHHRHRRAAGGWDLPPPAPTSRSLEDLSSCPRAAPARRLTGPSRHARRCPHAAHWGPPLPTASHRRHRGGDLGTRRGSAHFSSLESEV
UniProt Q13224, 27-1484: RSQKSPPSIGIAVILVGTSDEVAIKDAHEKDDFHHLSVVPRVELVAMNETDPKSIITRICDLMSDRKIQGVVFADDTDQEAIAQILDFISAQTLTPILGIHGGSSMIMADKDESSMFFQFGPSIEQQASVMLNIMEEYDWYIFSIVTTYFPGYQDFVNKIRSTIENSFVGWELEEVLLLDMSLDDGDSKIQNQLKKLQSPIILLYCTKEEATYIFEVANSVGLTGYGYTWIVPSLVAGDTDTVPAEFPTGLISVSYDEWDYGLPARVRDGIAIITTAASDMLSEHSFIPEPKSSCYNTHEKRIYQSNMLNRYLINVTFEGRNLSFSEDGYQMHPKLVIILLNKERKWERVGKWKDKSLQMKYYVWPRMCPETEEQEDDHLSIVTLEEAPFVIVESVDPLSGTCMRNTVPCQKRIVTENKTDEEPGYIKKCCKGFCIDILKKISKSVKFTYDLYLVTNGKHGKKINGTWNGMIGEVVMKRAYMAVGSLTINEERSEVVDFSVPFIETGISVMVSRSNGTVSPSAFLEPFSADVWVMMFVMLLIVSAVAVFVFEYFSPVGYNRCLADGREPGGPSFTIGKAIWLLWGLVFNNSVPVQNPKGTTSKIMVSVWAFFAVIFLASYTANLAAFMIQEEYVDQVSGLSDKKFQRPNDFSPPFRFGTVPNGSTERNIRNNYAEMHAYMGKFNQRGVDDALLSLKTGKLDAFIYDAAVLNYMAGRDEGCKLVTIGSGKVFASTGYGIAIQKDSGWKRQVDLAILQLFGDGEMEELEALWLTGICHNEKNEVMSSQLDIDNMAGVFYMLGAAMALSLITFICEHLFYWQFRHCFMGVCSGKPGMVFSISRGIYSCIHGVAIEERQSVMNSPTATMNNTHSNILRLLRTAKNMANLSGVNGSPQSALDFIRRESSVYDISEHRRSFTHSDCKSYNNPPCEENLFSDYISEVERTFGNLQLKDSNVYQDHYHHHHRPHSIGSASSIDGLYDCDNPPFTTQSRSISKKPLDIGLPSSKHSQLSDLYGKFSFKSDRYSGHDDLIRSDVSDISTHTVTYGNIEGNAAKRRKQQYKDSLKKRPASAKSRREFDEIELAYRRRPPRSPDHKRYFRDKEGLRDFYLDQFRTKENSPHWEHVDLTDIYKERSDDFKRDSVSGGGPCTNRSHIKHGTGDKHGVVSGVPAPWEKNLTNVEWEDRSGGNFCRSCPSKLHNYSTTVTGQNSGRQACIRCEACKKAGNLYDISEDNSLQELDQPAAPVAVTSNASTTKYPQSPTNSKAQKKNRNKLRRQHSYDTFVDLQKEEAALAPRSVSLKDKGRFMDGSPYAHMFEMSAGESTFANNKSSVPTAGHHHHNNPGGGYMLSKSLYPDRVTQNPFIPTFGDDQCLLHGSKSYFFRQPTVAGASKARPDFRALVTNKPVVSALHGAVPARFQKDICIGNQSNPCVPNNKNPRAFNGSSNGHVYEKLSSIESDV

Key:
human GluN2D = molecular target: T1, human GluN2D (Homo sapiens, UniProt O15399+Q05586); assay: Ca2+ fluorescence (fluo-8) assay in HEK cells expressing GluN2D; type: cell-based; details: HEK293, read-out: GluN2D % Inhib. @ 10 μM ± SEM (n)
T1 construct: expressed in transfected cells; host or cells: HEK cells

human GluN2B = molecular target: T2, human GluN2B (Homo sapiens, UniProt Q05586+Q13224); assay: Ca2+ fluorescence (fluo-8) assay in HEK cells expressing GluN2B; type: cell-based; details: HEK293, read-out: GluN2B % Inhib. @ 10 μM ± SEM (n)
T2 construct: expressed in transfected cells; host or cells: HEK cells

With O=C(NNC(=O)c1ccc(CNS(=O)(=O)c2ccc(F)c(Cl)c2)cc1)c1ccccc1 [TCN-201, 3-chloro-4-fluoro-N-[4-[[2-(phenylcarbonyl)hydrazino]carbonyl]benzyl]benzenesulfonamide, reference compound] as the compound, how does the inhibition at 10 µM (human GluN2D) read?
The inhibition at 10 µM was -8 ± 6%.

What about the inhibition at 10 µM (human GluN2B) of the same compound?
The inhibition at 10 µM was 30 ± 10%.
